In this experiment the target is PI3K p110 beta/p85 alpha (Homo sapiens, UniProt P42338). Description: Inhibition of recombinant human full-length N-terminal His6-tagged p110beta/human recombinant full-length untagged p85alpha expressed in baculovirus infected Sf21 insect cells using PIP2 as substrate after 30 mins in presence of ATP at 2xKm concentration by TR-FRET assay. In a few lines:
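Class I PI3K isoforms assayed in vitro for kinase inhibition with ATP at 2Km steady-state concentration; IC50 values averaged over at least 2 determinations.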

Chains of the proteins cited; added tags and fusions are not shown. Lines headed by an entry give the natural chain unless they say otherwise; changes in a name come on top.
UniProt P42338: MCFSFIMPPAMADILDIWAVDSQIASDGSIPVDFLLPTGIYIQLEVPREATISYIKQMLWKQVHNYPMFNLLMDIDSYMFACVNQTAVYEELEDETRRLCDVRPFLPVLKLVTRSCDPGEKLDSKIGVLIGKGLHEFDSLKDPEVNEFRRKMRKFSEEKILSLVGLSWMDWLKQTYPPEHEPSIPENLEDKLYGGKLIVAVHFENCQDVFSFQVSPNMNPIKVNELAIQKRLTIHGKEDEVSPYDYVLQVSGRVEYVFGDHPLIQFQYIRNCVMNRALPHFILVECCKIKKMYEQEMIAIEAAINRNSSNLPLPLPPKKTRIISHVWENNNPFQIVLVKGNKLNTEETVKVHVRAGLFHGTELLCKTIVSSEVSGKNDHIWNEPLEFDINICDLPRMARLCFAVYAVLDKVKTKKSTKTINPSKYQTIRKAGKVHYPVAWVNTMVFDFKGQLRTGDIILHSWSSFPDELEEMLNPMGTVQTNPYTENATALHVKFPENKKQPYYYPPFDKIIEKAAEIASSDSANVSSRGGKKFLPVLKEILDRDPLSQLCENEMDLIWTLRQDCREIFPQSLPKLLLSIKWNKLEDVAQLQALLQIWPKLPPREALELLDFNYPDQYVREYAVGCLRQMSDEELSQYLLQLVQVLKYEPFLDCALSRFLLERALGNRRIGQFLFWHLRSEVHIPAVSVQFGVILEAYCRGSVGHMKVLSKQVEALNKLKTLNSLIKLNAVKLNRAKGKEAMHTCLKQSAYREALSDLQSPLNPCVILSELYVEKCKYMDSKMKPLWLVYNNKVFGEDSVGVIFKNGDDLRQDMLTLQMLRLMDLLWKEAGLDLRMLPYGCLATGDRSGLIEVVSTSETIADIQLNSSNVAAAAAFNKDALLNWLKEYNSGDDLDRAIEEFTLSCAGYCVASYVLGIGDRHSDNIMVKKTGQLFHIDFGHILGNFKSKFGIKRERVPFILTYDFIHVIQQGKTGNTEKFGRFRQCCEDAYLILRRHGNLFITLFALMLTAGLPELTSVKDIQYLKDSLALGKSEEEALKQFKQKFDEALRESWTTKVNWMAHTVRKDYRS

As a reminder, the IC50 is the point on the concentration scale where inhibition reaches its midpoint. Consider `Cc1cc(C(C)Nc2ccccc2)c2nc(N3CCOCC3)cc(=O)n2c1` (stereo unspecified), for which the half-inhibitory concentration (IC50) was determined as 63 nM.
